Experimental data taken from BindingDB's records for 10841791.

Sequences of proteins named here, by UniProt entry; tags and fusion partners are left off. A change or cut given only in a name is not applied to a line headed by its entry.
UniProt P41144: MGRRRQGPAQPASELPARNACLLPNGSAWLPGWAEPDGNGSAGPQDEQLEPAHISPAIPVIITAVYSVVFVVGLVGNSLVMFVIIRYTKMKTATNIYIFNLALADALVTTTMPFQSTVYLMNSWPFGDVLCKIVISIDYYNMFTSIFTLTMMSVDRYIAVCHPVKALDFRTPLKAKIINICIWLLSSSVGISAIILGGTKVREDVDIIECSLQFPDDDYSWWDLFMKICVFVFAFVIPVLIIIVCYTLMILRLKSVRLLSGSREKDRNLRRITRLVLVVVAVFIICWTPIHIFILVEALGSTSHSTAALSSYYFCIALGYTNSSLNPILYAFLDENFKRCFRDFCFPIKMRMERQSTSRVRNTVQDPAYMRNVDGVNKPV

Molecular target: Kappa-type opioid receptor (Cavia porcellus, UniProt P41144)
Assay: Inhibition of [3H]U-69593 binding to Opioid receptor kappa 1 in guinea pig brain homogenates

In the case of `CN(C(=O)Cc1ccc(Cl)c(Cl)c1)[C@@H]1CCCC[C@H]1N1CCCC1`, the Ki is reported as 0.89 nM.
